Results on one molecule are retold here after patent US20180125993A1 (BEIJING COTIMES BIOTECH COMPANY LIMITED, priority 2014, published 2018).

The subject of the assay is MIA-PaCa-2. The experiment in a line: Human pancreatic cancer MIA-PaCa-2 subcutaneous model (34 days of treatment). To be noted: Gemcitabine 60 mg/kg i.p. Q3d × 6W.

For the molecule `Nc1ccn([C@@H]2O[C@H](CO)[C@@H](O)C2(F)F)c(=O)n1` [Gemcitabine, reference compound], the “T/C % (Calculated using tumor volumes)” value is 47.40%.
